Chains of the proteins cited; added tags and fusions are not shown.
UniProt P30989, whole entry: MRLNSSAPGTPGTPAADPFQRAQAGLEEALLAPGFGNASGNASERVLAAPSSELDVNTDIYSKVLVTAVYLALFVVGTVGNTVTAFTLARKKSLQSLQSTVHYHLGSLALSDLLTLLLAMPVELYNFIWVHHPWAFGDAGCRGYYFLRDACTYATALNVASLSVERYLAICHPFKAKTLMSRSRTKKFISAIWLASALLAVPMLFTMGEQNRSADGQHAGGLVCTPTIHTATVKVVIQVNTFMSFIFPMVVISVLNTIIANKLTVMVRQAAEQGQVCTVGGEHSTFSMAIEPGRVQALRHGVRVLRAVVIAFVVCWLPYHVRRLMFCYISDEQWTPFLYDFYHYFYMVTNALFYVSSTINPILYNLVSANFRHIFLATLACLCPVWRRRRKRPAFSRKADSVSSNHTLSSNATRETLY
UniProt P30560, whole entry: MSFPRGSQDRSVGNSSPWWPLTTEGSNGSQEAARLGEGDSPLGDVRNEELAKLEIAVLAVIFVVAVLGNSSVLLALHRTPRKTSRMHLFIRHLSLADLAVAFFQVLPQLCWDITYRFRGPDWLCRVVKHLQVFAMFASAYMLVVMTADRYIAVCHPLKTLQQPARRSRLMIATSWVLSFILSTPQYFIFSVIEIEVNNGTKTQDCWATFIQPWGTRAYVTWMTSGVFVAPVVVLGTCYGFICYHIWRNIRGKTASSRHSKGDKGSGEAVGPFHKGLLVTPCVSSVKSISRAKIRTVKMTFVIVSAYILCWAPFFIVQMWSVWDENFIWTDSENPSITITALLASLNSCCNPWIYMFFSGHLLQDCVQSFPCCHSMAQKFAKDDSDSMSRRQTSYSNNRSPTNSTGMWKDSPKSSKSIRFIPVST
UniProt P25929, whole entry: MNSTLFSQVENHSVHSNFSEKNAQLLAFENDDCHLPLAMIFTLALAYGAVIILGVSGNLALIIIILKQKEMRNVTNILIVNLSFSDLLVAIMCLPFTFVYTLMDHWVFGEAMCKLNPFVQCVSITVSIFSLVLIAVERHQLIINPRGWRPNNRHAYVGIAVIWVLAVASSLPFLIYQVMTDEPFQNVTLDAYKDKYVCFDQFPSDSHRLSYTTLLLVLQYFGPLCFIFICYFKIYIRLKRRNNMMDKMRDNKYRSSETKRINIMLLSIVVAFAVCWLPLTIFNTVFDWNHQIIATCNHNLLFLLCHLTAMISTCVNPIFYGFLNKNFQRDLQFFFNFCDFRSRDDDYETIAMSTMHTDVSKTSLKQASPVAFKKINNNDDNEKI

In patent US20020187514A1 (priority 1999, published 2002):

Experiments:
Format in all cases: binding
Conditions in all cases: read-out: Ref Kj
[1] = molecular target: T1, Neurotensin (Homo sapiens, UniProt P30989)
T1 construct: expressed in transfected cells

[2] = molecular target: T2, Vasopressin 1 (Rattus norvegicus, UniProt P30560)
T2 construct: no other source notation after assay name denotes animal cell or animal tissue source; from tissue

[3] = molecular target: Neuropeptide, NPY1 (Homo sapiens, UniProt P25929); test: Neuropeptide, NPY1 (Human); [125I]PYY

Acetyl-NT (8-13) gave a Ki [1] of 0.34 nM.

In the case of “Arg8-Vasopressin [Arg8-Vasopressin (AVP)]”, the Ki [2] is reported as 0.998 nM.

With NPY (porcine) the Ki [3] was 3.45 nM.
